# Measurements as given in patent US11781160B2, “Methods for the production of methacrylates” (priority 2018, dated 2023).
# Test system: E. coli BW 25113
# Assay: Growth of E. coli BW25113 (wild type) with BMA in M9 minimal medium
# Conditions: 0.01% v/v BMA
compound,measurement,value
"C=C(C)C(=O)OCCCC [BMA, butyl 2-methylprop-2-enoate]",Growth of E. coli compared with growth in the absence of BMA,very similar to its growth in the absence of BMA
